# Measured values from PubChem BioAssay AID636 (SRMLSC, 2007).
# The entries are a selection whose mix differs from that of the whole data set. Activity calls are given as the source filed them. Cut-off read from the data, not from the text of the source: active = inhibition above about 31%; inactive = the rest.
# Assay: 384-well plate pilot, post-Golgi transport modulator project, inhibition of yeast transport mutant growth (AID 636)
# Details: absorbance 615 nm, about 18 h, stronger effect = higher value
row,Structure (SMILES),inhibition
1,Cc1ccc(C)c(NP(C)(=O)Oc2ccccc2)c1 (stereo not given),inactive: -0.91%
2,CP(=S)(Nn1cnnc1)Oc1ccccc1 (stereo not given),inactive: -4.68%
3,CP(=O)(Nc1ccccn1)Oc1ccccc1 (stereo not given),inactive: -1.3%
4,CN(C)CCOC(=O)C(O)(c1ccccc1)C1CCCCC1 (stereo not given),inactive: -1.84%
5,CP(=O)(Nc1ccc2c(c1)OCCO2)Oc1ccccc1 (stereo not given),inactive: -2.95%
